Reference: patent US20180238885A1

Target: ISGF3γ (UniProt Q00978)
Assay: P-LISA interaction level; median over the tumours of 31 GBM patients

- median of DNMT3A/ISGF3γ interaction: 12.5
Substance: DNMT3A (DNA methyltransferase 3A) (from UniProt Q9Y6K1 1-912) (enzyme)
